Source: ChEMBL document CHEMBL4177657, “Structure-activity relationships of 2-substituted phenyl-N-phenyl-2-oxoacetohydrazonoyl cyanides as novel antagonists of exchange proteins directly activated by cAMP (EPACs)” (Bioorg Med Chem Lett, 2017)

Species on record: Homo sapiens
Test: Selectivity ratio of IC50 for recombinant human GST-fused EPAC2-B domain (283 to 1011 residues) expressed in Escherichia coli Rosetta (DE3) to IC50 for recombinant human GST-fused EPAC1 expressed in Escherichia coli Rosetta (DE3)

Ratio IC50: 10
Structure (SMILES): C[C@@H]1CCc2c(cc(Br)c(F)c2Br)N1C=O
